Melting point values, as collected for the OPERA models

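The OPERA project collected these measurements from public sources as training and test data for property models. A listed value is a point estimate from one report or more. How each value was measured is not recorded, so precision varies. The measured form (salt, isomer or mixture) is not always the one drawn. Unmarked limits or estimates from the upstream databases cannot be ruled out.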

Melting points are in °C.

compound	melting point (°C)
C[C@H]1CC[C@@H]2N(C1)C[C@@H]1[C@H]([C@@H](O)[C@H](O)[C@]3(O)[C@H]1C[C@@]14O[C@@]5(O)[C@@H]([C@@H](O)[C@@H](O)[C@@H]31)[C@]4(C)CC[C@@H]5O)[C@]2(C)O	221
CC(C)Oc1ccc(C(=O)NCC(=O)O)cc1	155
COc1ccc(NC(=O)CCl)c([N+](=O)[O-])c1	99
NN1C(=O)NC2(CCCCC2)C1=O	165
NC1CCN(c2ncccn2)CC1	83
O=C(O)C1=NN(C2CCS(=O)(=O)C2)C(=O)CC1 (stereo not given)	139
COc1cccc(C(=O)NCC(=O)O)c1	79
CC(=O)C(=O)CC(C)C	-16.7
CN(C)C(=O)c1ccc(C#N)cc1	94
CC(C)NC(=O)c1ccc(Cl)c(N)c1	132
CCCCCCCCC(=O)N(C)C	-5.1
CC(=O)/C=C(\C)[C@@]12CCC[C@@]3(C)[C@@H]1CC[C@@]3(C)C2	-22
O=c1nc(-c2ccccc2)[nH]c(-c2ccccc2)n1	294.6
O=[N+]([O-])c1cccc(-c2nnc(CCl)o2)c1	116
COc1cc(-c2nnc(CCl)o2)cc(OC)c1OC	122
O=C1COc2ccc(C(=O)O)cc2N1	229
NCc1nnc2n1CCCCC2	71
COc1ccc(C=CC(=O)OCCC(C)C)cc1	3.5
Nc1cccc(-c2ccn[nH]2)c1	138
COc1c(C)cc(N)cc1C	63.5
O=CC(C=O)c1nc2ccccc2[nH]1	30
CC1(C)CC(=O)c2sc(N)nc2C1	213
OC(Cc1nc2ccccc2o1)c1cccc(C(F)(F)F)c1 (stereo not given)	88
CCN(CC)c1ccc(N=Nc2cc(Br)ccn2)c(O)c1	158
N#CCCN(CCC#N)c1ccc(N=Nc2c(Br)cc([N+](=O)[O-])cc2C(F)(F)F)cc1	186.3
C=CCCC1CCC(C2CCC(c3ccc(C)cc3)CC2)CC1 (stereo not given)	103.7
CC(C)CCCCCCCCCCOC(=O)c1ccc(C(=O)OCCCCCCCCCCC(C)C)c(C(=O)OCCCCCCCCCCC(C)C)c1	-24.5
CCCCCCCC/C=C\CCCCCCCC(=O)OCC(COC(=O)CCCCCCC/C=C\CCCCCCCC)(COC(=O)CCCCCCC/C=C\CCCCCCCC)COC(=O)CCCCCCC/C=C\CCCCCCCC	-33
O=C(CBr)c1ccc2c(c1)CCO2	73
COc1ccc(S(=O)(=O)NCC(=O)O)cc1OC	174
O=C(Nc1ccc(O)cc1)c1ccco1	219
O=C1NC2(CCCCC2)NC2=C1CCCC2	194
CC(C)(C)OC(=O)Nc1ccc(F)cc1N	132
Cc1ccccc1-n1[nH]nnc1=S	66
CCCCCCCCCCCCCCCC(=O)Nc1cc(Cl)c(CC)c(Cl)c1O	78
CON=Cc1ccc(C(=O)O)cc1	184
O=C(O)c1cc(-c2ccc(Cl)cc2)nn1-c1ccccc1	215
Cc1[nH]c2ccccc2c1-c1csc(N)n1	169
CCCCCCC(O)CCCCCCCCCCC(=O)[O-].CCCCCCC(O)CCCCCCCCCCC(=O)[O-].[Ca+2] (stereo not given)	179.2

A selection of 4 entries from above:

compound	melting point (°C)
C[C@H]1CC[C@@H]2N(C1)C[C@@H]1[C@H]([C@@H](O)[C@H](O)[C@]3(O)[C@H]1C[C@@]14O[C@@]5(O)[C@@H]([C@@H](O)[C@@H](O)[C@@H]31)[C@]4(C)CC[C@@H]5O)[C@]2(C)O	221
CCCCCCCCC(=O)N(C)C	-5.1
CCN(CC)c1ccc(N=Nc2cc(Br)ccn2)c(O)c1	158
CCCCCCCC/C=C\CCCCCCCC(=O)OCC(COC(=O)CCCCCCC/C=C\CCCCCCCC)(COC(=O)CCCCCCC/C=C\CCCCCCCC)COC(=O)CCCCCCC/C=C\CCCCCCCC	-33

Source: data files of OPERA 2.9 (Mansouri et al.), github.com/kmansouri/OPERA.